The values below come from patent publication US20130004581A1, “CONTROLLING UPTAKE BY CELLS” (Ramot at Tel-Aviv University Ltd., priority 2010, published 2013).

The test system of one data set is HaCaT cells. The conditions noted are these: Caco-2, pH 5. As to the method: FIG. 6 is a chart showing PIU of molecules different by size and charge, in accordance with some embodiments of the invention. Hacat cultures were exposed to solutions of pH 5.2 or pH 7.4 for 5 minutes period, in the presence of different fluorescence molecules (All at 25 μM concentration). FACS analysis results (FL1, geometrical mean±SD) for the cell cultures exposed to pH 5.2 are presented as fold induction relative to results obtained for cells exposed to pH 7.4. This can be used, in some embodiments of the invention, to assess effect of molecule size and charge on uptake.
FIGS. 7A-7B are charts showing the comparison of PIU in adherent and suspended HaCaT cells, in accordance with some embodiments of the invention. For FIG. 7A, HaCaT cells were tested either at their adherent state, or following harvest at a suspended state. […] FACS analyses (FL1) in terms of geometrical mean±SD are presented as fold induction relative to the constitutive uptake at physiological pH 7.4. n=9 in 3 independent experiments. For FIG. 7B, HaCaT Cells were cultivated at low, medium or high cell density. […] The cultures were harvested and undergone FACS analyses (FL1) in terms of geometrical mean±SD and are presented as fold induction relative to the constitutive uptake of low density cultures. Statistical significance was tested against the confluent culture, n=9 in 3 independent experiments. […]

Another data set concerns TK6 cells. The conditions noted are these: pH 5; 5 minutes; P<0.001.

Dextran-FITC: the “dextran concentration relative to Caco2/TC7 and COS 5-7 cells” value in the data set on HaCaT cells and in the data set on TK6 cells was 2 folds each time.
